Target: TLN1 PTB (Homo sapiens, UniProt Q9Y490)
Assay type: binding

The chains behind the UniProt entries cited, without tags or fusion partners. Residues count along the entry.
UniProt Q9Y490, 309-401: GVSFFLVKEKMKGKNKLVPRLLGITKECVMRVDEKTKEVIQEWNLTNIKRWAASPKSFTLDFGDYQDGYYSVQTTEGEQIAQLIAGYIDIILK

Sequence	DMS-derived PSSM value of the single-substitution variant
FPTDERSWVYSPLHYS S11Y (FPTDERSWVYYPLHYS)	0.01898
FPTDERSWVYSPLHYS S16A (FPTDERSWVYSPLHYA)	0.1376
FPTDERSWVYSPLHYS S16D (FPTDERSWVYSPLHYD)	0.02039
FPTDERSWVYSPLHYS S16E (FPTDERSWVYSPLHYE)	0.04737
FPTDERSWVYSPLHYS S16F (FPTDERSWVYSPLHYF)	0.01755
FPTDERSWVYSPLHYS S16G (FPTDERSWVYSPLHYG)	0.1494
FPTDERSWVYSPLHYS S16H (FPTDERSWVYSPLHYH)	0.05241
FPTDERSWVYSPLHYS S16I (FPTDERSWVYSPLHYI)	0.1835
FPTDERSWVYSPLHYS S16K (FPTDERSWVYSPLHYK)	0
FPTDERSWVYSPLHYS S16L (FPTDERSWVYSPLHYL)	0.02196
FPTDERSWVYSPLHYS S16M (FPTDERSWVYSPLHYM)	0.03471
FPTDERSWVYSPLHYS S16N (FPTDERSWVYSPLHYN)	0.02533
FPTDERSWVYSPLHYS S16P (FPTDERSWVYSPLHYP)	0.03064
FPTDERSWVYSPLHYS S16Q (FPTDERSWVYSPLHYQ)	0.008877
FPTDERSWVYSPLHYS S16R (FPTDERSWVYSPLHYR)	0.0204
FPTDERSWVYSPLHYS S16S	0.02006
FPTDERSWVYSPLHYS S16T (FPTDERSWVYSPLHYT)	0.07976

Sequence	DMS-derived PSSM value of the single-substitution variant
FPTDERSWVYSPLHYS S16V (FPTDERSWVYSPLHYV)	0.1122
FPTDERSWVYSPLHYS S16W (FPTDERSWVYSPLHYW)	0.005315
FPTDERSWVYSPLHYS S16Y (FPTDERSWVYSPLHYY)	0.03257
FPTDERSWVYSPLHYS T3A (FPADERSWVYSPLHYS)	0.01832
FPTDERSWVYSPLHYS T3D (FPDDERSWVYSPLHYS)	0.01221
FPTDERSWVYSPLHYS T3E (FPEDERSWVYSPLHYS)	0.1875
FPTDERSWVYSPLHYS T3F (FPFDERSWVYSPLHYS)	0.002155
FPTDERSWVYSPLHYS T3G (FPGDERSWVYSPLHYS)	0.01993
FPTDERSWVYSPLHYS T3H (FPHDERSWVYSPLHYS)	0.04202
FPTDERSWVYSPLHYS T3I (FPIDERSWVYSPLHYS)	0.01059
FPTDERSWVYSPLHYS T3K (FPKDERSWVYSPLHYS)	0.003486
FPTDERSWVYSPLHYS T3L (FPLDERSWVYSPLHYS)	0.2378
FPTDERSWVYSPLHYS T3M (FPMDERSWVYSPLHYS)	0.004936
FPTDERSWVYSPLHYS T3N (FPNDERSWVYSPLHYS)	0.01686
FPTDERSWVYSPLHYS T3P (FPPDERSWVYSPLHYS)	0.03563
FPTDERSWVYSPLHYS T3Q (FPQDERSWVYSPLHYS)	0.07291

Reference: PMC12102759 (Protein Science : A Publication of the Protein Society, 2025)
